Experimental data from article PMC11639629, “Synthesis and Biological Evaluation of Deoxycyclophellitols as Human Retaining β‐Glucosidase Inhibitors” (Chemistry (Weinheim an Der Bergstrasse, Germany), 2024).

Tested on: GBA1, GBA2 and GBA3
Assay type: binding, human

With CN1/C(=C/C=C/C=C/C2=[N+](CCCCCC(=O)NCc3cn(CCCCCCCCN4[C@@H]5[C@H](CO)C[C@H](O)C[C@@H]54)nn3)c3ccccc3C2(C)C)C(C)(C)c2ccccc21 (stereo partly shown) [Compound 5] as the compound, how does the “selectivity in cABPP with 2 (300 nM)” value read?
The value was “selectivity of 5 for GBA2/3 over GBA1”.
